Test [1] concerns the target human recombinant A1 adenosine receptor (Homo sapiens, UniProt P30542). As to the kind of experiment: [3H]-DPCPX binding to human A1 adenosine receptor expressed in CHO cells.
The target of test [2] is human recombinant A2A adenosine receptors (Homo sapiens, UniProt P29274). As to the kind of experiment: Radioligand binding to hA2A receptors expressed in CHO cells.

By UniProt entry, the sequences of proteins in these tests, tags left out.
UniProt P30542, whole entry: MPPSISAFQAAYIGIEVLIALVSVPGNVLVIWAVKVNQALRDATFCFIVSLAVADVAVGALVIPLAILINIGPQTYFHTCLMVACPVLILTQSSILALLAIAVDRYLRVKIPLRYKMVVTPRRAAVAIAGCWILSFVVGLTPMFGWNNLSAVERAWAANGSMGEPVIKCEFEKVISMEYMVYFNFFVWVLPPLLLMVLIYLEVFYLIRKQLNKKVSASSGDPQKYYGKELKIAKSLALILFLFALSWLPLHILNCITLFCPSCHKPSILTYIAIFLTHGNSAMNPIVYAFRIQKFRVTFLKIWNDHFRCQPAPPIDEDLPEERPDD

On to `CCCn1c(=O)c2c(nc3[nH]c(C)cn32)n(Cc2ccccc2)c1=O` [Compound 10, 1-Benzyl-7-methyl-3-propyl-1H-imidazo[1,2-f]purine-2,4(3H,8H)-dione], for which the values for the Ki in test [1] and in test [2] were 2530 nM and above 5 µM, respectively.

(Values after US7435740B2 (dated 2008).)
